These results are taken from published antibiotic growth screens (doi:10.1038/s41589-023-01349-8).

Some of the results follow.

In this assay the test system is A. baumannii ATCC 17978. The experiment in a line: relative growth (fraction of control); higher = less inhibition. The settings on record: 50 µM.
Molecule `COc1cc(OC)c2c(c1)OC(c1ccccc1)CC2=O` (stereo not drawn) yielded a relative growth of 1.01.

As for `CCN1C(=O)[C@H]2[C@H]3[C@H](O)[C@H](O)C/C(=N\OC[C@@H](O)COCc4ccco4)[C@@H]3CC[C@H]2C1=O`, the relative growth is 1.09.

Turning to `O=C(NO)c1cccc(C(=O)N/N=C/[C@H](O)[C@@H](O)[C@@H](O)[C@H](O)C(=O)O)c1`, the relative growth worked out at 0.936.

`O=C1CCc2cc(OCCCCc3nnnn3C3CCCCC3)ccc2N1`: the relative growth is 0.868.

Consider `CCS(=O)(=O)CCn1c([N+](=O)[O-])cnc1C`, for which the relative growth came to 0.994.

Consider `CO[C@@H]1CN(C)C(=O)c2cc(NS(=O)(=O)CC(F)(F)F)ccc2OC[C@H](C)N(C(=O)NC(C)C)C[C@H]1C`, for which the relative growth came out at 1.22.

As for `CCN1CCCC(OC(=O)C(c2ccccc2)c2ccccc2)C1.Cl` (stereo not drawn), the relative growth was 1.28.

As for `COc1cccc(S(=O)(=O)N(C)C[C@H]2Oc3cc(C#CCC(C)C)ccc3S(=O)(=O)N([C@H](C)CO)C[C@H]2C)c1`, the relative growth was found to be 1.31.

Turning to `CCC1=C(C)CN(C(=O)NCCc2ccc(S(=O)(=O)NC(=O)N[C@H]3CC[C@H](C)CC3)cc2)C1=O`, the relative growth was determined as 1.11.

As to `CC(C)[Si](C#CCCCC#N)(O[C@H](c1ccccc1)c1cn(Cc2cccc(Cl)c2)nn1)C(C)C`, the relative growth came out at 0.919.

For the molecule `O=C(C[C@@H]1CC=CC[C@H](NC(=O)OCC2c3ccccc3-c3ccccc32)C(=O)OC[C@H](Cc2ccccc2)NC1=O)N[C@H](CO)Cc1ccccc1`, the relative growth came out at 0.894.

`Cn1c(=O)c2c(ncn2CCNC2=NCCC2)n(C)c1=O` showed a relative growth of 1.16.

With `COCC(=O)Nc1ccc2c(c1)C(=O)N(C)[C@@H]1CC[C@H](CC(=O)NCc3ccc(OC)cc3)O[C@@H]1CO2`, the relative growth was determined as 1.09.

With `NNC(=O)Cn1nnc(N2CCCC2)n1`, the relative growth amounted to 1.04.

With `CCC(C)CCCCC(=O)NC(CCN)C(=O)NC(C(=O)NC(CCN)C(=O)NC1CCNC(=O)C(C(C)O)NC(=O)C(CCN)NC(=O)C(CCN)NC(=O)C(CC(C)C)NC(=O)C(Cc2ccccc2)NC(=O)C(CCN)NC1=O)C(C)O.O=S(=O)(O)O` (stereo not drawn), the relative growth came to 0.488.

In turn, `COCCNC(=O)C[C@H]1CC[C@@H]2[C@H](COC[C@@H](O)CN2C(=O)Nc2ccccc2OC)O1` gave a relative growth of 1.07.

For the molecule `C[C@@H](O)c1ccc2ccccc2c1`, the relative growth amounted to 0.829.

Turning to `COCC#Cc1ccc2c(c1)O[C@@H](CN(C)C(=O)Nc1ccccc1F)[C@@H](C)CN([C@@H](C)CO)S2(=O)=O`, the relative growth amounted to 0.996.

For the molecule `NCCCN.O=C(O)C(O)C(O)C(=O)O` (stereo not drawn), the relative growth is 0.889.

The molecule `Cc1cc(C)n(-c2nc3c(c(=O)n(CCN4CCOCC4)c(=O)n3C)n2C)n1` came in with a relative growth of 1.01.

As to `Cc1ccc(S(=O)(=O)N2C[C@H](O)COC[C@H]3O[C@@H](CC(=O)NCc4ccc(Cl)c(Cl)c4)CC[C@@H]32)cc1`, the relative growth was determined as 1.04.

`C[C@@H]1CN([C@@H](C)CO)S(=O)(=O)c2ccc(C#C[C@@H](C)O)cc2O[C@@H]1CN(C)C(=O)CN(C)C` gave a relative growth of 1.2.

`CC(C)CCC[C@@H](C)[C@H]1CC[C@@]2(C)C3=C(CC[C@]12C)[C@@]1(C)CC[C@H](OC(=O)CCl)C(C)(C)[C@@H]1CC3` returned a relative growth of 1.06.

In turn, `Cc1ccccc1OC[C@@H](O)CO` registered a relative growth of 1.08.

With `Cn1cnc(S(=O)(=O)N2C[C@H](O)COC[C@@H]3O[C@H](CC(=O)N4CCN(c5ccccc5)CC4)CC[C@H]32)c1`, the relative growth turned out to be 0.813.

In turn, `N[C@@H](Cn1ccnc1)c1ccccc1` had a relative growth of 1.04.

The molecule `CN(C)CCNc1ccc(CN)cc1` came in with a relative growth of 1.13.

Molecule `Cc1noc(C)c1NC(=O)N[C@@H]1C=C[C@H](CC(=O)N2CCN(C)CC2)O[C@@H]1CO` yielded a relative growth of 1.07.

Consider `CCOCCOc1ccccc1C(N)=O`, for which the relative growth turned out to be 1.19.

`COc1ccc2cc1Oc1ccc(cc1)C[C@H]1c3cc(c(OC)cc3CCN1C)Oc1c(OC)c(OC)cc3c1[C@H](C2)N(C)CC3` yielded a relative growth of 0.755.

For the molecule `Cc1ccc(S(=O)(=O)N(C)C[C@@H]2Oc3c(NC(=O)Nc4cccc5ccccc45)cccc3C(=O)N([C@@H](C)CO)C[C@H]2C)cc1`, the relative growth amounted to 0.914.

The molecule `FC(F)(F)c1ccccc1-c1ncc(-c2ccccc2)o1` displayed a relative growth of 0.813.

With `NCC[C@H]1CC[C@H](NC(=O)C2CCCC2)[C@@H](CO)O1`, the relative growth is 1.07.

With `O=C(N[C@@H]1C=C[C@H](CC(=O)N2CCOCC2)O[C@H]1CO)c1ccccn1`, the relative growth was found to be 1.07.

Consider `Cc1ccoc1C(=O)NCCN`, for which the relative growth stood at 0.931.

`O=S1(=O)CO[C@@H](c2ccccc2)CN1` showed a relative growth of 1.08.

`O=C(C[C@H]1C=C[C@@H](NC(=O)Nc2ccc3c(c2)OCO3)[C@H](CO)O1)NCCCN1CCOCC1`: the relative growth stood at 1.07.

As to `Cc1ccccc1NC(=O)CC(C)C`, the relative growth was found to be 0.953.

The molecule `C=CCOc1nc(NCC)nc(N(C)C)n1` had a relative growth of 0.904.

Molecule `CS(=O)(=O)O.OC(CCN1CCCCC1)(c1ccccc1)c1ccccc1` registered a relative growth of 0.859.

`COCC(=O)Nc1ccc2c(c1)C(=O)N(C)[C@H]1CC[C@@H](CC(=O)NCc3ccc(OC)cc3)O[C@H]1CO2`: the relative growth stood at 0.981.

In turn, `Oc1ccc2c(c1)OCC1(O)Cc3cc(O)c(O)cc3C21` (stereo not drawn) showed a relative growth of 1.26.

The molecule `CCCC#Cc1ccc2c(c1)O[C@H](CN(C)Cc1ccc3c(c1)OCO3)[C@@H](C)CN([C@@H](C)CO)S2(=O)=O` registered a relative growth of 1.21.

On to `COc1cc(C(=O)NC2CCCNC2)cc(OC)c1OC` (stereo not drawn), for which the relative growth is 1.02.

In turn, `COCC#Cc1ccc2c(c1)O[C@@H](CN(C)Cc1ccccc1F)[C@H](C)CN([C@H](C)CO)S2(=O)=O` had a relative growth of 0.996.

`CCCNC(=O)N(C)c1nncnc1C(=O)NC` gave a relative growth of 1.08.

Molecule `COc1ccc([C@@H]([C@H](Cc2ccccc2)OC(C)=O)N2C[C@@H](CC(=O)N(C)C)[C@@H]3[C@H]([C@@H]2Cc2ccccc2)N(C)O[C@H]3c2ccccc2)cc1` yielded a relative growth of 1.16.

In turn, `CO[C@@H]1CN(C)C(=O)c2ccc(NS(=O)(=O)c3cn(C)cn3)cc2OC[C@H](C)N(CCC(F)(F)F)C[C@@H]1C` yielded a relative growth of 0.973.

In turn, `Cc1ccc(OCc2ccc(Cl)cc2)c(C(C)(C)C)c1` returned a relative growth of 0.89.

Take `CO[C@H](CN(C)S(=O)(=O)c1cn(C)cn1)[C@H](C)CN(C(=O)Nc1ccc(C(F)(F)F)cc1)[C@H](C)CO`: the relative growth is 0.968.

In turn, `CC(=O)c1c(O)c(C)c(O)c2c1OC1=CC(=O)C(C(C)=O)C(=O)C12C` (stereo not drawn) registered a relative growth of 0.911.

On to `COCCNC(=O)C[C@H]1CC[C@H](NS(=O)(=O)c2ccc(C)cc2)[C@H](CO)O1`, for which the relative growth amounted to 1.05.

With `O=C(C[C@H]1CC[C@@H]2[C@H](COC[C@H](O)CN2C(=O)Nc2cccc(F)c2)O1)NCCCN1CCOCC1`, the relative growth is 0.899.

`COc1ccccc1CNC(=O)C[C@@H]1CC[C@H]2[C@@H](COC[C@@H](O)CN2C(=O)Nc2ccc(Cl)cc2)O1` yielded a relative growth of 0.939.

`O=C1[O][Bi]([OH])[O]c2ccccc21` displayed a relative growth of 0.956.

Consider `CC(=O)N(C)CP(=O)(O)CN1CCCC1=O`, for which the relative growth is 0.959.

For `C[C@H](CO)N1C[C@H](C)[C@H](CN(C)CC2CC2)Oc2cc(C#Cc3ccc(F)cc3)ccc2S1(=O)=O`, the relative growth came out at 0.805.

In turn, `C[C@@H]1CN([C@H](C)CO)S(=O)(=O)c2ccc(C#Cc3ccccc3F)cc2O[C@@H]1CN(C)C(=O)Cc1cccnc1` yielded a relative growth of 0.884.

For `CCn1c2c(c3cc(C4CCCCC4)ccc31)CCCC2=O`, the relative growth is 1.

In turn, `COc1cccc(-c2ccc3c(c2)O[C@H](CN(C)C(=O)C2CCC2)[C@@H](C)CN([C@H](C)CO)S3(=O)=O)c1` registered a relative growth of 0.663.

Molecule `COc1ccc(S(=O)(=O)Nc2ccc3c(c2)[C@@H]2C[C@H](CC(=O)NCC4CC4)O[C@H](CO)[C@@H]2O3)cc1` displayed a relative growth of 1.05.

With `CC(C)CCCC(C)C1CCC2C3CC(=O)[C@H]4C[C@@H](O)CC[C@]4(C)C3CC[C@]12C` (stereo partly drawn) [5alpha-CHOLESTAN-3beta-OL-6-ONE], the relative growth worked out at 1.01.

Molecule `C=CCN1C(=O)[C@@]2(O[C@@H](CCn3cc([C@H](O)c4ccccc4)nn3)[C@H]([Si](C)(C)c3ccc(OC)cc3)[C@H]2C)c2ccccc21` displayed a relative growth of 1.22.

On to `C/C=C1\[C@@H](O[C@H]2O[C@@H](CO)[C@@H](O)[C@@H](O)[C@@H]2O)OC=C(C(=O)OC)[C@H]1CC(=O)OC[C@H]1[C@H](C)[C@H](OC(=O)C[C@@H]2C(C(=O)OC)=CO[C@H](O[C@H]3O[C@@H](CO)[C@@H](O)[C@@H](O)[C@@H]3O)/C2=C\C)C[C@@H]1[C@H](CO)COC(=O)C[C@@H]1C(C(=O)OC)=CO[C@@H](O[C@H]2O[C@@H](CO)[C@@H](O)[C@@H](O)[C@@H]2O)/C1=C\C`, for which the relative growth came to 1.03.

Molecule `Cc1cc(O)c2c(c1)Cc1cccc(O)c1C2=O` returned a relative growth of 0.898.

For the molecule `COC(=O)c1cc(-c2ccccc2)oc1CN`, the relative growth is 0.889.

As for `N[C@]12CC[C@](C(=O)O)(CC1)C2`, the relative growth amounted to 1.02.

Molecule `O=C(C1CC1)N1CCN(c2ncccn2)CC1` had a relative growth of 0.925.

For the molecule `COc1ccc(S(=O)(=O)N(C)C)cc1`, the relative growth is 0.874.

`O=C1OC2(c3ccc(O)cc3Oc3cc(O)ccc32)c2ccccc21` showed a relative growth of 1.01.

For `COc1ccc(S(=O)(=O)N2C[C@@H](O)COC[C@@H]3O[C@H](CC(=O)NCCCN4CCOCC4)CC[C@H]32)cc1`, the relative growth stood at 1.1.

`O=C([O-])[C@H](O)[C@@H](O)[C@H](O)[C@H](O)CO.[Na+]` yielded a relative growth of 1.15.

`Cc1ccc(Nc2nnc(-c3ccccc3)c3ccccc23)cc1` yielded a relative growth of 1.02.

`O=C(O)CCC(=O)Nc1ccc(S(=O)(=O)Nc2nccs2)cc1` yielded a relative growth of 0.885.

In the case of `CCCC(=O)Nc1ccc2c(c1)C(=O)N(C)C[C@@H](OC)[C@@H](C)CN(Cc1ccc(-c3ccccn3)cc1)[C@@H](C)CO2`, the relative growth stood at 1.09.

Molecule `C[C@@H]1CN([C@@H](C)CO)S(=O)(=O)c2ccc(C#CC3CC3)cc2O[C@H]1CN(C)C(=O)C1CCCCC1` displayed a relative growth of 0.782.

`COc1cnc(NS(=O)(=O)c2ccc(N)cc2)nc1`: the relative growth worked out at 1.02.

As to `O=NN(CCCl)C(=O)NC1CCCCC1`, the relative growth was found to be 1.28.

As for `O=C(C[C@H]1CC[C@H]2[C@@H](COC[C@@H](O)CN2S(=O)(=O)c2cccc(Cl)c2)O1)NCc1ccncn1`, the relative growth came out at 1.21.

Consider `O=C(C1=C[C@H](c2ccc(C(F)(F)F)cc2)C[C@H](OCc2ccc(CO)cc2)O1)N1CCN(Cc2ccccc2)CC1`, for which the relative growth was determined as 0.938.

As to `O=C1[C@H]2[C@H](O)CS[C@H]2C(=O)N1c1ccccc1`, the relative growth came out at 0.873.

`CC(CO)(CO)NC(=O)NC1CCCCC1` registered a relative growth of 1.25.

Regarding `COC[C@@H]1CN(C(=O)c2cscn2)N1C`, the relative growth is 1.02.
